Measurements: US20230404929A1, “Intradermal Delivery of Extracellular Vesicle-Encapsulated Curcumin Using Dissolvable Microneedle Arrays” (priority 2020, published 2023)

Settings: buffer

With “albumin-curcumin: curcumin conjugated to albumin” the “curcumin remaining stable up to day 7” value was “about 8%” and the curcumin remaining stable (3 h) was 60%.
